Consider three molecules from US10189845B2, “4,6-substituted-pyrazolo[1,5-a]pyrazines as janus kinase inhibitors” (ARRAY BIOPHARMA INC., priority 2014, dated 2019).

Amino acid sequences for entries named in this document (tags omitted). A change or cut given only in a name is not applied to a line headed by its entry.
UniProt P23458: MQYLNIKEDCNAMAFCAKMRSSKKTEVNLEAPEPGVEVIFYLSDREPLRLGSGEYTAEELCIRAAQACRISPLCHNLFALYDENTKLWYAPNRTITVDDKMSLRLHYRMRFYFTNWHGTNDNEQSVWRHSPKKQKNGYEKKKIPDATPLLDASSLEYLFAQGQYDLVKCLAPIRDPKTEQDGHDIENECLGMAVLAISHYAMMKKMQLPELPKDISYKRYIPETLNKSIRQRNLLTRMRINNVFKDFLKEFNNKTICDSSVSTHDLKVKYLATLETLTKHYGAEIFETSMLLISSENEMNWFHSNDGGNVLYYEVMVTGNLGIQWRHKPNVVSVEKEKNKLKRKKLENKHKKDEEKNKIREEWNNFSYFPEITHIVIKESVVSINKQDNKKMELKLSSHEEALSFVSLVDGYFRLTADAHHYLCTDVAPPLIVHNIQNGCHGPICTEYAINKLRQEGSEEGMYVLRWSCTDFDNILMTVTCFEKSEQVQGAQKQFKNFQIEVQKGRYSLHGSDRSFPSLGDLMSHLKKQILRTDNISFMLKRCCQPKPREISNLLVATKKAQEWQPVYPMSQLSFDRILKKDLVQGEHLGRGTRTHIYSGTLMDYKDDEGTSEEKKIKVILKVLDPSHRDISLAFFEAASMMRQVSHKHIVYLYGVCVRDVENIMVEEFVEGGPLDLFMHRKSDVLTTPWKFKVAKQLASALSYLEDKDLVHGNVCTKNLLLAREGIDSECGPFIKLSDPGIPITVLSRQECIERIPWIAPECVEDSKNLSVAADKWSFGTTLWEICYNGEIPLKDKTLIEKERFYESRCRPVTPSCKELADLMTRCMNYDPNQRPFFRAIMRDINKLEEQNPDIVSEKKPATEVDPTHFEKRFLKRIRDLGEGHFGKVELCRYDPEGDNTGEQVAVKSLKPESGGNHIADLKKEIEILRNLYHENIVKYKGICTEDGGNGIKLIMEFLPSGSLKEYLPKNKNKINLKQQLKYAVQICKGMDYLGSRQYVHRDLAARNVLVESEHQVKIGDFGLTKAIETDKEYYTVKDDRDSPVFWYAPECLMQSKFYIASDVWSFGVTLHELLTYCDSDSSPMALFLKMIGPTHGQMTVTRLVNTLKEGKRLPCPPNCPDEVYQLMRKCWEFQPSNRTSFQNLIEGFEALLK
UniProt P52333: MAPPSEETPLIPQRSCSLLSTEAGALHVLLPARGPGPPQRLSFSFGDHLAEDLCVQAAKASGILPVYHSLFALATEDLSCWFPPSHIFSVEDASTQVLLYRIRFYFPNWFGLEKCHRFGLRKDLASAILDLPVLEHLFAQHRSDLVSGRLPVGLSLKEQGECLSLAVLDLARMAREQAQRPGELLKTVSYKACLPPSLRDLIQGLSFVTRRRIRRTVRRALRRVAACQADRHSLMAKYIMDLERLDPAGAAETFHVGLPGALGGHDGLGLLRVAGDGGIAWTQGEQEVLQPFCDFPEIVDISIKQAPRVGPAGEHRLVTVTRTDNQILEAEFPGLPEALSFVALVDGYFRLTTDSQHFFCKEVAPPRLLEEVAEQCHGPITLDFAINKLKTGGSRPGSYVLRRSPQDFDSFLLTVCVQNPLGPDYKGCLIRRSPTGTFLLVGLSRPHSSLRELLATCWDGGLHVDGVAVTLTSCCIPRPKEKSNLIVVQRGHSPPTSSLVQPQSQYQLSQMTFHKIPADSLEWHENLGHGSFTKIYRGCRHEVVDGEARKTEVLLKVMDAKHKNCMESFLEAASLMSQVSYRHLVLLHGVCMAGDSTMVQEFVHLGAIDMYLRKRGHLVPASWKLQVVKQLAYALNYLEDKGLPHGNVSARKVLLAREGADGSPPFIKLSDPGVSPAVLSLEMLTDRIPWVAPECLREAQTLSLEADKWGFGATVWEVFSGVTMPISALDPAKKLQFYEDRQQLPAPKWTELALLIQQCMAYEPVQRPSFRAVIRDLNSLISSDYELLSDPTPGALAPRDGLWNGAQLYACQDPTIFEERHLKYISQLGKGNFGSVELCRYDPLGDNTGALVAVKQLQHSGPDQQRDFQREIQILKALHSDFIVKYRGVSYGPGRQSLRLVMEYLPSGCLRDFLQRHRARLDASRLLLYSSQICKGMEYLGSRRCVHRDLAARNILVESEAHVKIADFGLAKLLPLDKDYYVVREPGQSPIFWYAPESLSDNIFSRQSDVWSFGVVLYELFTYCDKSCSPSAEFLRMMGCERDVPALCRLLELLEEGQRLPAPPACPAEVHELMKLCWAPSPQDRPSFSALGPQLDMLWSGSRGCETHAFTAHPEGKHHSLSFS

The target in one test is JAK1 (Homo sapiens (Human), UniProt P23458). The test is described as follows: JAK1 Inhibition Assay (Example B, Omnia kinase fluorescence peptide substrate assay). It counts as biochemical. Particulars: JAK1 Enzyme IC50 1 mM ATP, averaged IC50 ranges. From the text:
(§1) The assays described in Examples A, B, C and D for the determination of Tyk2, JAK1, JAK2 and JAK3 kinase activity, respectively, utilized the Omnia® Kinase fluorescence peptide substrate-based technology (Invitrogen). The specific components of the assay mixture are described in Examples A, B, C and D. In these assays, Mg^2+ is chelated upon phosphorylation of the Omnia peptide by the kinase to form a bridge between the chelation-enhanced fluorophore Sox and the phosphate, resulting in an increase in fluorescence emission at 485 nm when excited at […]. The reactions were therefore read at excitation 360 nm and emission was measured at 485 nm every 50 seconds for 45 minutes using a PerkinElmer EnVision Multilabel Plate Reader.
(§2) The final buffer conditions for Tyk2, JAK1, JAK2, and JAK3 assays were as follows: 25 mM HEPES, pH 7.4, 10 mM MgCl2, 0.01% Triton X-100 and 1 mM DTT.
(§3) Two-μL aliquots of these were transferred to a fresh plate for a ten-fold intermediate dilution with assay buffer. Five-μL aliquots of the diluted compounds were then transferred to 20-μL of assay mixtures described in Examples A, B, C and D for a final concentration of DMSO of 2%. […] For each plate, percent of control (POC) values were calculated for each well according to the following equation: […]
(§4) IC50's were estimated from the POC's using a standard 4-parameter logistic model: […]

A further test concerns the target JAK3 (Homo sapiens (Human), UniProt P52333). The test is described as follows: JAK3 Inhibition Assay (Example D, Omnia kinase fluorescence peptide substrate assay). It counts as biochemical.
From the text: as §1, §2, §3, §4

For the molecule `CC[C@H](CC(F)(F)F)n1cc(-c2nc(-c3cnn(C[C@@H](O)CO)c3)cn3nccc23)cn1` (single isomer, unassigned) [Example 209], the results for the IC50 against JAK1 and on JAK3 were 0.1 to 1 µM and 1 to 10 µM, respectively.

Regarding `CCC(CC(F)(F)F)n1cc(-c2nc(-c3cnn(C[C@@H](O)CO)c3)cn3nccc23)cn1` (single isomer, unassigned) [Example 210], the IC50 on JAK3 was 1 to 10 µM.

On to `CC(C)[C@H](C)n1cc(-c2nc(-c3cnn(C[C@@H](O)CO)c3)cn3nccc23)cn1` [Example 80, (R)-3-(4-(4-(1-((S)-3-methylbutan-2-yl)-1H-pyrazol-4-yl)pyrazolo[1,5-a]pyrazin-6-yl)-1H-pyrazol-1-yl)propane-1,2-diol], for which, on JAK1, the IC50 is 1 to 10 µM.
